Drawing on ChEMBL document CHEMBL4813985, “Lead optimization generates selenium-containing miconazole CYP51 inhibitors with improved pharmacological profile for the treatment of fungal infections” (Eur J Med Chem, 2021), this text covers Ratio for 2 compounds.

Molecules are shown by their SMILES.

The assay has as its system Candida albicans. Put plainly: Ratio of MFC for Candida albicans CPCC400616 incubated for 48 hrs followed by culturing on PDA plate for 24 hrs to MIC for Candida albicans CPCC400616 measured after 24 hrs. It is filed as functional.

Regarding `Fc1ccc([Se]C(Cn2ccnc2)c2ccc(F)cc2F)cc1` (configuration not stated), the Ratio is 4. Take `CCc1ccccc1[Se]C(Cn1ccnc1)c1ccc(F)cc1F` (configuration not stated): the Ratio worked out at 4.
